According to patent publication US12559492B2, “BRAF degraders” (C4 Therapeutics, Inc., priority 2020, dated 2026):
Where two headings read alike, the source gives them in different places.

Protein sequences, listed by entry. Tags and fused reporters are not part of them.
UniProt P15056, whole entry V600E: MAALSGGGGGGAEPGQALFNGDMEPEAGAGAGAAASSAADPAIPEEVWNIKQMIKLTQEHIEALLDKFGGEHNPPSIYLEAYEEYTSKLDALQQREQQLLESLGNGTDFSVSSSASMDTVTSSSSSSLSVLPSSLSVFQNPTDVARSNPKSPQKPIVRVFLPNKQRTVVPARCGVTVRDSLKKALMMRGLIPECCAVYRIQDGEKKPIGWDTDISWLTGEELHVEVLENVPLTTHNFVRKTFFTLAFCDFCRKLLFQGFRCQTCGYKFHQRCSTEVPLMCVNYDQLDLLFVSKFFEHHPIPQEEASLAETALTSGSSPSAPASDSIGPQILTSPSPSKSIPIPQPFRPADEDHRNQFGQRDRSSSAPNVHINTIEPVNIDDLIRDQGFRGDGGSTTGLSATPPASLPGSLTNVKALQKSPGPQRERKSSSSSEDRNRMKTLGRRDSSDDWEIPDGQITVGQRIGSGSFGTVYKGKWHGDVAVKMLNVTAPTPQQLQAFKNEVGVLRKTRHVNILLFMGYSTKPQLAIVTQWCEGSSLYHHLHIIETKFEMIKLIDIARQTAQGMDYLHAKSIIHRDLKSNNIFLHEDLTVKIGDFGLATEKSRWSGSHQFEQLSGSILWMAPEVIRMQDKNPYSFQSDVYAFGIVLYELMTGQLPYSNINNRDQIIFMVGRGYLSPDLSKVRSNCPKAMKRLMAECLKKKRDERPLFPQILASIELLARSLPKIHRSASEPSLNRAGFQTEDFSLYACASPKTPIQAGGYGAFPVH

Biological target: BRAF^V600E protein (Homo sapiens, UniProt P15056, V600E)
Experiment: HiBiT cellular BRAF V600E degradation assay
Assay type: cell-based
Conditions: for DC50: read-out: HiBit 24 h DC50; for Emax: read-out: HiBit 24 h Emax
Excerpt: DMEM no-phenol red medium supplemented with L-glutamine was purchased from (Corning). Fetal bovine serum (FBS) was purchased from Gibco (Grand Island, NY, USA). Nano-Glo® HiBiT Lytic Assay Buffer & Reagents were purchased from Promega (Madison, WI, USA). A375 (harboring BRAF homozygous V600E mutation) was purchased from ATCC. […] Cell culture flasks and 384-well black flat-bottom polystyrene TC-treated microplates were acquired from Corning (Corning, NY, USA).
HiBiT Cellular BRAFv^600E Degradation Assay
Prior to the assay, the A375.10 cell line is maintained in DMEM no-phenol red medium supplemented with 10% fetal bovine serum (FBS). Following compound treatment, BRAF^V600E degradation was determined based on quantification of HiBiT luminescence signal by lysing the cells followed by addition of Nano-Glo® HiBiT Lytic Assay Reagents. The luminescence signal detected correlates with the total BRAF^V600E protein level in cells. Briefly, test compounds were added to the 384-well plate from a top concentration of 10 μM with 11 half log dilutions of compound, plated in duplicate. Then, 30 uL of a suspension of A375.10 cell lines was dispensed into columns 1-24 of the 384-well plates at a cell density of 7500 cells per well. The plates were kept at 37° C. with 5% CO2 for the duration of the assay (6 or 24 hr). After the desired incubation time with compound, 30 uL of Nano-Glo® HiBiT Lytic Buffer containing LgBiT protein (diluted 1:100) and luminescence substrate (diluted 1:50) were added to the cells in columns 1-23 of the assay plate. The plate was the incubated for 30 min on the bench at room temperature. Finally, HiBiT luminescence signal was acquired on EnVision™ Multilabel Reader (PerkinElmer, Santa Clara, CA, USA).
Quantification of luminescence responses measured in the presence of compound were normalized to a high signal/no degradation control (untreated cells+lytic detection reagent) and a low signal/full degradation control (untreated cells, no lytic detection reagent). Data were analyzed with a 4-parameter logistic fit to generate sigmoidal dose-response curves. The DC50 is the concentration of compound at which exactly 50% of the total cellular BRAF^V600E has been degraded. The Emax, or maximum effect of each compound, represents the amount of residual protein remaining in the cell following compound treatment.

Structure (SMILES)	DC50 [nM]	Emax [%]	DC50 (A375.10 cells (HiBiT tag knocked in at N-terminal of BRAF V600E), 24 h incubation, concentration at which 50% of total cellular BRAF V600E is degraded) [nM]
CCN(C)S(=O)(=O)Nc1ccc(F)c(C(=O)c2c[nH]c3ncc(-c4cnc(N5CCN(C(=O)C(F)(F)C6CCN(c7ccc(NC8CCC(=O)NC8=O)cc7)CC6)CC5)nc4)cc23)c1F (centres unmarked) [Example 60, 5-[2-[4-[2-[1-[4-[(2,6-dioxo-3-piperidyl)amino]phenyl]-4-piperidyl]-2,2-difluoro-acetyl]piperazin-1-yl]pyrimidin-5-yl]-3-[3-[[ethyl(methyl)sulfamoyl]amino]-2,6-difluoro-benzoyl]-1H-pyrrolo[2,3-b]pyridine]	16.6	16	
CCN(C)S(=O)(=O)Nc1ccc(F)c(C(=O)c2c[nH]c3ncc(-c4cnc(N5CCC(N(C)C(=O)C6CCN(c7ccc(NC8CCC(=O)NC8=O)cc7F)CC6)CC5)nc4)cc23)c1F (centres unmarked) [Example 135, 1-[4-[(2,6-dioxo-3-piperidyl)amino]-2-fluoro-phenyl]-N-[1-[5-[3-[3-[[ethyl(methyl)sulfamoyl]amino]-2,6-difluoro-benzoyl]-1H-pyrrolo[2,3-b]pyridin-5-yl]pyrimidin-2-yl]-4-piperidyl]-N-methyl-piperidine-4-carboxamide]	3.94	10.2	
CCN(C)S(=O)(=O)Nc1ccc(F)c(C(=O)c2c[nH]c3ncc(-c4cnc(N5CCN(C(=O)NC6CCN(c7ccc(NC8CCC(=O)NC8=O)cc7)CC6)CC5)nc4)cc23)c1F (centres unmarked) [Example 139, N-[1-[4-[(2,6-dioxo-3-piperidyl)amino]phenyl]-4-piperidyl]-4-[5-[3-[3-[[ethyl(methyl)sulfamoyl]amino]-2,6-difluoro-benzoyl]-1H-pyrrolo[2,3-b]pyridin-5-yl]pyrimidin-2-yl]piperazine-1-carboxamide]	6.89	9.49	
CCN(C)S(=O)(=O)Nc1ccc(F)c(C(=O)c2c[nH]c3ncc(-c4cnc(N5CCN(C(=O)C[C@]6(O)CC[C@@H](c7ccc(NC8CCC(=O)NC8=O)cc7)CC6)CC5)nc4)cc23)c1F (some centres unmarked) [Example 142, 5-[2-[4-[2-[4-[4-[(2,6-dioxo-3-piperidyl)amino]phenyl]-1-hydroxy-cyclohexyl]acetyl]piperazin-1-yl]pyrimidin-5-yl]-3-[3-[[ethyl(methyl)sulfamoyl]amino]-2,6-difluoro-benzoyl]-1H-pyrrolo[2,3-b]pyridine]	6.94	11.7	
CCN(C)S(=O)(=O)Nc1ccc(F)c(C(=O)c2c[nH]c3ncc(-c4cnc(N5CCN(CCC6(O)CCC(c7ccc(NC8CCC(=O)NC8=O)cc7)CC6)CC5)nc4)cc23)c1F (centres unmarked) [Example 145, 5-[2-[4-[2-[4-[4-[(2,6-dioxo-3-piperidyl)amino]phenyl]-1-hydroxy-cyclohexyl]ethyl]piperazin-1-yl]pyrimidin-5-yl]-3-[3-[[ethyl(methyl)sulfamoyl]amino]-2,6-difluoro-benzoyl]-1H-pyrrolo[2,3-b]pyridine]	18.9	29.5	
CCN(C)S(=O)(=O)Nc1ccc(F)c(C(=O)c2c[nH]c3ncc(-c4ccc(N5CCN(C(=O)CC6(O)CCN(c7ccc(NC8CCC(=O)NC8=O)c(F)c7)CC6)CC5)nc4)cc23)c1F (centres unmarked) [Example 183, 5-[6-[4-[2-[1-[4-[(2,6-dioxo-3-piperidyl)amino]-3-fluoro-phenyl]-4-hydroxy-4-piperidyl]acetyl]piperazin-1-yl]-3-pyridyl]-3-[3-[[ethyl(methyl)sulfamoyl]amino]-2,6-difluoro-benzoyl]-1H-pyrrolo[2,3-b]pyridine]		8.35	1.94
CCN(C)S(=O)(=O)Nc1ccc(F)c(C(=O)c2c[nH]c3ncc(-c4ccc(N5CCN(C(=O)CC6(O)CCN(c7ccc(NC8CCC(=O)NC8=O)cc7F)CC6)CC5)c(C(F)F)c4)cc23)c1F (centres unmarked) [Example 200, 5-[3-(difluoromethyl)-4-[4-[2-[1-[4-[(2,6-dioxo-3-piperidyl)amino]-2-fluoro-phenyl]-4-hydroxy-4-piperidyl]acetyl]piperazin-1-yl]phenyl]-3-[3-[[ethyl(methyl)sulfamoyl]amino]-2,6-difluoro-benzoyl]-1H-pyrrolo[2,3-b]pyridine]	5.38	6.13	
